Target: T1, human DNC (mitochondrial deoxynucleotide carrier) (Homo sapiens, UniProt Q9HC21)
T1 construct: Amino acids are numbered from 1-320; made in house; host or cells: E. coli BL21(DE3), pET21b; inclusion bodies solubilized in sarkosyl, Ni-NTA purified
T1 sequence (Q9HC21 2-320 limits assumed): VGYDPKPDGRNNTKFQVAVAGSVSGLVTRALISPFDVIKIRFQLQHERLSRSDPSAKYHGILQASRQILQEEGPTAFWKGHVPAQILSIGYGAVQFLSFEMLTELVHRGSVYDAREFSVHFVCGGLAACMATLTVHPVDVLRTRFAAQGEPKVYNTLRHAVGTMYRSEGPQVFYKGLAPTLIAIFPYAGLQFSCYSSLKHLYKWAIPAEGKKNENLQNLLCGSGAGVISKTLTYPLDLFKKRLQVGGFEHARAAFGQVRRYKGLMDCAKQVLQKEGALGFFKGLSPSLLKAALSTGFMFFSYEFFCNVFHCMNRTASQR
Experiment: Inhibition of [α-35S]dATP uptake (dATP/ADP exchange) by external substrates and carrier inhibitors
Type: biochemical
Conditions: read-out: Ki, competitive inhibition of [α-35 S]dATP uptake by external substrate; internal ADP or dADP 10 mM

Substance: dADP
- Ki: 14 µM

Source: patent US20030036111A1, “Mitochondrial protein” (priority 2001, published 2003)
